Laboratory results from ChEMBL document CHEMBL1144249, “Identification of a novel class of androgen receptor antagonists based on the bicyclic-1H-isoindole-1,3(2H)-dione nucleus” (Bioorg Med Chem Lett, 2005).

Chains of the proteins cited; added tags and fusions are not shown. Lines headed by an entry give the natural chain unless they say otherwise; changes in a name come on top.
UniProt P10275: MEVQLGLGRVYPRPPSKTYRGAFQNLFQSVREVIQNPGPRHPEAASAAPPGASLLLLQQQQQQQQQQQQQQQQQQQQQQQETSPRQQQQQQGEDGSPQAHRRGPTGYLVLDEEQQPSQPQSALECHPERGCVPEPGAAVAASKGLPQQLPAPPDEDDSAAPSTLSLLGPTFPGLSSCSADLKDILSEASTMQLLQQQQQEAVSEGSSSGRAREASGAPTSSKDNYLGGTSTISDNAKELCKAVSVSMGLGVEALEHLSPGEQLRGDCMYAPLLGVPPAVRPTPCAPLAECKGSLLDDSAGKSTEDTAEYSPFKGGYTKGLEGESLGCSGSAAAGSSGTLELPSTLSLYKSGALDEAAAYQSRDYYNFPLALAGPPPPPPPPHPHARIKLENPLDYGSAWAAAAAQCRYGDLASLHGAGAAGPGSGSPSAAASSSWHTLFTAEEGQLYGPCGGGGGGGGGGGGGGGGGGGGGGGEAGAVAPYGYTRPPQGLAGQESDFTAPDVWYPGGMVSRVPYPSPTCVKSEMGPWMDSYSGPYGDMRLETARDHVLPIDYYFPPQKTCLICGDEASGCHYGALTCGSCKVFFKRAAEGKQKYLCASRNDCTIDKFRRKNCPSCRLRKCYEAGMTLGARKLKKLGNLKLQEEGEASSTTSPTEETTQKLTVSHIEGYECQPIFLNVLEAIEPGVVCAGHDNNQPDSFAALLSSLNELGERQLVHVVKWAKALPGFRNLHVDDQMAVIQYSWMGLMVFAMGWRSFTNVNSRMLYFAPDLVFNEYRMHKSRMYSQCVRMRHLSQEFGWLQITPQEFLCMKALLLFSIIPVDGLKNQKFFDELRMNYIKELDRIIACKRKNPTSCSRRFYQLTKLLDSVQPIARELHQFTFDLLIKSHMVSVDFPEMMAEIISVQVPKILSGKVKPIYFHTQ

How the values were obtained:
[1] = biological target: T1, Androgen receptor (Homo sapiens, UniProt P10275); assay: Inhibition of [3H]DHT binding to androgen receptor of MDA-453 cells
[2] = biological target: T1, Androgen receptor

Ki [1] | Structure (SMILES) | IC50 [2]
177 nM | O=C1[C@@H]2C3C=CC(C3)[C@@H]2C(=O)N1c1ccc(F)c(Cl)c1 | 
530 nM | O=C1[C@@H]2C3C=CC(C3)[C@@H]2C(=O)N1c1ccc2cccnc2c1 | 

Structure (SMILES) | Ki [1] | IC50 [2]
O=C1[C@@H]2C3CCC(C3)[C@@H]2C(=O)N1c1ccc([N+](=O)[O-])c(C(F)(F)F)c1 (stereo in doubt; 16) | 117 nM | 114 nM
